Results: patent US8703804B2, “Ryanodine receptor inhibitors and methods relating thereto” (UTI Limited Partnership, priority 2006, dated 2014)

The chains behind the UniProt entries cited, without tags or fusion partners.
UniProt E9Q401, whole entry R4495C: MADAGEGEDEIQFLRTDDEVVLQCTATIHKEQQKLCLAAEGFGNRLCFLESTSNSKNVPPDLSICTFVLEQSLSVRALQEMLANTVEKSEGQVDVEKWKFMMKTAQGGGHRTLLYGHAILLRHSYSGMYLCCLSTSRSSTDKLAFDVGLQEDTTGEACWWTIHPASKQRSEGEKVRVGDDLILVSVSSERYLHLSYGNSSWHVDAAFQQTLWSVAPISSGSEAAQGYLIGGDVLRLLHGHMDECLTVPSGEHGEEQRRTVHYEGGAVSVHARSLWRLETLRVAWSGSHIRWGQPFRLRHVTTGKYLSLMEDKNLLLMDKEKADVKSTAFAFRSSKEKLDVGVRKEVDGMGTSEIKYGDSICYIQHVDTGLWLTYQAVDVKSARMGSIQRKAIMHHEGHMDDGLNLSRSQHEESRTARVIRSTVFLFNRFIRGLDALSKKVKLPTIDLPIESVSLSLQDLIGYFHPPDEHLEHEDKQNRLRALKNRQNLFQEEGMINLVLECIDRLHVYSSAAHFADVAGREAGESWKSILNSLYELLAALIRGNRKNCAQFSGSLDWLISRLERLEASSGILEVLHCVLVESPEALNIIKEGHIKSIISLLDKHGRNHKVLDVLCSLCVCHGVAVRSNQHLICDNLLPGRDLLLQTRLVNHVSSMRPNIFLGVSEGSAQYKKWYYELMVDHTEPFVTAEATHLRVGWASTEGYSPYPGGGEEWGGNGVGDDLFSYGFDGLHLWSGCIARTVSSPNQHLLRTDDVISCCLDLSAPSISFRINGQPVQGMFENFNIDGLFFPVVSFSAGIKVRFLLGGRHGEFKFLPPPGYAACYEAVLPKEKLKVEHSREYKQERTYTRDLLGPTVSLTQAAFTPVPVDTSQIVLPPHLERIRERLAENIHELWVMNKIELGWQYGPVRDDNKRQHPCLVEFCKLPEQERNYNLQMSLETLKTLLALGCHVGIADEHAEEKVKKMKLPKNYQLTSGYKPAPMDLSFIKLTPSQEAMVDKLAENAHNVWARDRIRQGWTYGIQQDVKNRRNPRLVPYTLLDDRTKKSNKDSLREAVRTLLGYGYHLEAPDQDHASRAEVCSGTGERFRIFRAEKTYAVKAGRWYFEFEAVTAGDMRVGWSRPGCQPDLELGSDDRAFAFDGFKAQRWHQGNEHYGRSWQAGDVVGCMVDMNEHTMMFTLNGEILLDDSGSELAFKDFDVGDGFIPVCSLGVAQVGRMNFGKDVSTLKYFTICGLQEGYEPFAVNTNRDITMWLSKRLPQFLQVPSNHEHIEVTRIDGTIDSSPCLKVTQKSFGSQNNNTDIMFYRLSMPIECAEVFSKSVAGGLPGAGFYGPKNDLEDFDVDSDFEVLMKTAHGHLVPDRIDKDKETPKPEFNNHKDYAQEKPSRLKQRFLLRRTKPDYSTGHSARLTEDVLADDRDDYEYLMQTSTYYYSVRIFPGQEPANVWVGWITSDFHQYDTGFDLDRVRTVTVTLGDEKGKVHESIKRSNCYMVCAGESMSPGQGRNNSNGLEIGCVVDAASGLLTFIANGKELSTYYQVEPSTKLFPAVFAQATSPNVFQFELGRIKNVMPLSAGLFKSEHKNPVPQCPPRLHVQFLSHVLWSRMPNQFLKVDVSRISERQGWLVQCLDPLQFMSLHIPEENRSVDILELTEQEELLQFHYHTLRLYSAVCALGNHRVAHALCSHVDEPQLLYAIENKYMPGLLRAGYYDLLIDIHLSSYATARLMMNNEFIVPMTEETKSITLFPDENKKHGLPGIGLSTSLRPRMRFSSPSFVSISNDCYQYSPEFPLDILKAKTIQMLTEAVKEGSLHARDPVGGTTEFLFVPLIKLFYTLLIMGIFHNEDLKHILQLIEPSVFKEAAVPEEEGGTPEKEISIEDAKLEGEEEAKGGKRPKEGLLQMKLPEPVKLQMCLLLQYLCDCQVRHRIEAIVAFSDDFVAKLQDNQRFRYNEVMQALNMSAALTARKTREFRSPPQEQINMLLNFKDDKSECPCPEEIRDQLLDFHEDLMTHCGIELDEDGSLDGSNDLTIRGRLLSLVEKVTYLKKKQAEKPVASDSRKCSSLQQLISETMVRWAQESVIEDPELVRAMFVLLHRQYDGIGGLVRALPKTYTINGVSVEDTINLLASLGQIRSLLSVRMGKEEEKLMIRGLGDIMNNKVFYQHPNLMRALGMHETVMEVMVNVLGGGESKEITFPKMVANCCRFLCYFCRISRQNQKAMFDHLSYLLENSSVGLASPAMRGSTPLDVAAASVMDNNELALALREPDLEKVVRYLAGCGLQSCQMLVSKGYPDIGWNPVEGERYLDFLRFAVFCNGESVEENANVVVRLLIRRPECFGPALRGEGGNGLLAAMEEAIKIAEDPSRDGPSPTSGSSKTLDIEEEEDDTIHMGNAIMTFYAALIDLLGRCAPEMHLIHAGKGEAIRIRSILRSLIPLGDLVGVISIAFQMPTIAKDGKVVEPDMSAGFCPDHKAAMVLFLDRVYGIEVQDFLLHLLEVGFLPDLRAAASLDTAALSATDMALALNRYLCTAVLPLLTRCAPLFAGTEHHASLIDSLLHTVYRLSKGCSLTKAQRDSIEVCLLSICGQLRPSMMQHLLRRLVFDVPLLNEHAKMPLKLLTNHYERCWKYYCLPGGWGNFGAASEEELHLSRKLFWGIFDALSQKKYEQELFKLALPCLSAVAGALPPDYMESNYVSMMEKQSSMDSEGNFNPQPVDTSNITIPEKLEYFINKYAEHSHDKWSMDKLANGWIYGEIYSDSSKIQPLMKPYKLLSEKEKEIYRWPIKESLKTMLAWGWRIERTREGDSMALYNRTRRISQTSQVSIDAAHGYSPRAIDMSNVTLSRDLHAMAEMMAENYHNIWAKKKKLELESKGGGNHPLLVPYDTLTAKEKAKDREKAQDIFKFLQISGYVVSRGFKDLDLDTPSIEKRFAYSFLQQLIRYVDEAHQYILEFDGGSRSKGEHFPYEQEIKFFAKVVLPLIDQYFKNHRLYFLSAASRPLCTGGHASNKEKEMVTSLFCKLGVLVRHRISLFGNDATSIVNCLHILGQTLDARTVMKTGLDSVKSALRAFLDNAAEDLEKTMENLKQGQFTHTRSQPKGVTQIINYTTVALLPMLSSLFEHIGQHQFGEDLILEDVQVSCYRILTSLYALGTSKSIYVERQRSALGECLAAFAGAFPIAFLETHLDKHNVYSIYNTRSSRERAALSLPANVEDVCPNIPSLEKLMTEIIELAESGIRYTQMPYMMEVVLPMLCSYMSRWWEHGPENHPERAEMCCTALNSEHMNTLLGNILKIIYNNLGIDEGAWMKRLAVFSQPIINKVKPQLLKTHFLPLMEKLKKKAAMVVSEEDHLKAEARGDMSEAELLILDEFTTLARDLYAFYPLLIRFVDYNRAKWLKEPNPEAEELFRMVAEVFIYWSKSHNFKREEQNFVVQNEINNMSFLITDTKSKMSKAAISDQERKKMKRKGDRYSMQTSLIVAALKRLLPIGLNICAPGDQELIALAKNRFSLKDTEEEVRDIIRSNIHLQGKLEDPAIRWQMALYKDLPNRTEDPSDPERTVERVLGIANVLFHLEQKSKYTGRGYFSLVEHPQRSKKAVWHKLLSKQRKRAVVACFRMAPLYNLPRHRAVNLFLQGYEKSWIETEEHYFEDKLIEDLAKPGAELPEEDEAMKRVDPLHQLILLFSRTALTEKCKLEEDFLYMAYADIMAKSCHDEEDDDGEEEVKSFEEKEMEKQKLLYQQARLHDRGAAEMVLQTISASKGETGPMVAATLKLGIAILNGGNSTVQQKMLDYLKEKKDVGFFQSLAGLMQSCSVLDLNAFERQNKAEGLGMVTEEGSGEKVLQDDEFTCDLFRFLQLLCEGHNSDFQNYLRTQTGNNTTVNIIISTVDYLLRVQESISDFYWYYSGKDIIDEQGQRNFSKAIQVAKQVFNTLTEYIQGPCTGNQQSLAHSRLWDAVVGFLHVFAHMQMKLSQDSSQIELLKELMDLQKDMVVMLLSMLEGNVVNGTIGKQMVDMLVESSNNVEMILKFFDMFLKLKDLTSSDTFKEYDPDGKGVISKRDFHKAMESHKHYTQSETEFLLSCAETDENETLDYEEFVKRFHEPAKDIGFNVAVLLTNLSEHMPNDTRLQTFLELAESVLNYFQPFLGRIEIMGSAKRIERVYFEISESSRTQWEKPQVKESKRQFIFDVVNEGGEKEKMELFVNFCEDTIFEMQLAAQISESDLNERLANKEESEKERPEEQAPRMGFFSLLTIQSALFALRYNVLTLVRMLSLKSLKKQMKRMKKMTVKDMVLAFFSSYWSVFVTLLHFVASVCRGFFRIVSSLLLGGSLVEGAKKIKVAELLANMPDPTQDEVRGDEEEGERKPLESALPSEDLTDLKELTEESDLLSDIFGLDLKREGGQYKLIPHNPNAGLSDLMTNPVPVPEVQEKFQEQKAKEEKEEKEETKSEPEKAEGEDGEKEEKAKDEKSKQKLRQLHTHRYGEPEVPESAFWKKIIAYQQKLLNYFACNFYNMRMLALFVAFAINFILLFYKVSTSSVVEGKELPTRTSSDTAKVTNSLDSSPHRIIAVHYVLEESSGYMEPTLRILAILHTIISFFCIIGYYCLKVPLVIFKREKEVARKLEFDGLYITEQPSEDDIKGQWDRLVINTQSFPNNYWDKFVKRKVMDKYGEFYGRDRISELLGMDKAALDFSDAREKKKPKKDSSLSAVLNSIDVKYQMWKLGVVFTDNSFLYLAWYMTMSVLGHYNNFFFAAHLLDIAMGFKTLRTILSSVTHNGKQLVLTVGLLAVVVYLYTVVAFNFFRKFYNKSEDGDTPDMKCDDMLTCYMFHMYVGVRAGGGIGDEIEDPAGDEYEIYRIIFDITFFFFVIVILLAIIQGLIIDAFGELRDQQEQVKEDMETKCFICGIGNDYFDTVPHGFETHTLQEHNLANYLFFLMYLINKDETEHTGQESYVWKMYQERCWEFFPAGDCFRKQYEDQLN

Columns and labels:
mutant RyR2 channels = target: T1, mutant RyR2 channels (Mus musculus, UniProt E9Q401, R4495C); assay: [3H]ryanodine binding, basal channel activity of RyR2; format: biochemical
T1 construct: expressed in transfected cells; host or cells: HEK293 (cell lysate, detergent-solubilised)
From the text: (§1) Intracellular Ca^2+ transients were monitored using single cell Ca^2+ imaging.
[^3H]Ryanodine binding has been widely used as a functional assay for assessing the activity of the RyR2 channel. […] These [^3H]ryanodine binding studies reveal whether suppression of SOICR by a compound is mediated by inhibition of the RyR2 channel activity.

β-adrenergic receptors = assay: β-blocking activity of carvedilol reported in the literature (Yao et al., 2003); format: cell-based
Procedure: The β-blocking effect of the selected compounds may be tested in freshly isolated rat cardiac myocytes. Cardiac cells are isolated, loaded with fluo-4 AM, and bathed in a standard solution containing low Ca^2+ concentrations (1-2 mM). Cells are then stimulated by a train of short pulses (˜10 ms, 0.25 Hz), and the resulting intracellular Ca^2+ transients will be monitored using a fluorescence microscope. Cells will be pretreated with or without increasing concentrations of a selected compound, followed by the addition of isoproterenol (0.1-1 μM), an agonist of the β-adrenergic receptor known to augment intracellular Ca^2+ transients. The extent of inhibition on isoproterenol-induced augmentation of Ca^2+ transients under each condition will be measured and used to determine the IC50 of β-blocking activity for each selected compound. Using a procedure similar to that described above, the IC50 of β-blocking activity of carvedilol has been reported to be 1-2 nM (Yao et al., 2003). In certain embodiments, compounds of the present invention have little or moderate β-blocking activity.

RyR2 channel = target: T2, RyR2 channel (Mus musculus, UniProt E9Q401, R4495C); assay: Ca2+ dependence of [3H]ryanodine binding (sensitivity of RyR2 to Ca2+ activation, CICR); format: biochemical; conditions: 30 μM (FIG. 4D)
T2 construct: expressed in transfected cells; host or cells: HEK293 (cell lysate, detergent-solubilised)
From the text: as §1
Alternatively, the effect of compounds on CICR may be determined using [^3H]ryanodine binding. As CICR is dependent, to a large extent, on the sensitivity of the RyR2 channel to activation by Ca^2+, the effect of a compound on CICR may be determined by assessing the impact of the compound on the sensitivity of the RyR2 channel to Ca^2+ activation. To this end, [^3H]ryanodine binding to the RyR2 channel in a wide range of Ca^2+ concentrations may be measured. The sensitivity (EC50) of [^3H]ryanodine binding to RyR2 in the absence and presence of a particular compound may be determined.

RyR2-R4496C mutant = target: T3, RyR2-R4496C mutant (Mus musculus, UniProt E9Q401, R4495C); assay: SOICR in HEK293 cells expressing RyR2-R4496C mutant (fura-2 single cell Ca2+ imaging); format: cell-based
T3 construct: expressed in transfected cells; host or cells: HEK293
From the text: as §1
This bioassay takes advantage of the finding that HEK293 cells expressing RyR2 mutants associated with cardiac arrhythmia and sudden death, readily display SOICR at elevated extracellular Ca^2+. […] This assay may be employed to determine the dose-dependent effect of each proposed compound on SOICR.
(§2) HEK293 cells may be loaded with a fluorescent Ca^2+ dye, fura-2-AM. SOICR, which manifests in the form of Ca^2+ oscillations, is continuously monitored by measuring the fluorescent changes using the single cell Ca^2+ imaging technique. Cells will be perfused with increasing concentrations (10 nM to 100 μM) of the compound. The frequency and amplitude of Ca^2+ oscillations under each condition will be determined and analyzed. Compounds that inhibit SOICR are expected to reduce the frequency of Ca^2+ oscillations, or abolish Ca^2+ oscillations.

RyR2-N4104K mutant = target: T4, RyR2-N4104K mutant (Mus musculus, UniProt E9Q401, N4103K); assay: SOICR in HEK293 cells expressing the N4104K RyR2 mutant; format: cell-based
T4 construct: expressed in transfected cells; host or cells: HEK293
Procedure: as §1, §2
Further verification of whether these identified compounds also work in cardiac cells, the effect of these compounds on SOICR in rat ventricular myocytes may also be determined. Rat ventricular myocytes may be isolated according to the standard procedure using enzymatic digestion. […] The intracellular Ca^2+ transients as a result of SOICR will be monitored by measuring the fluorescent intensity using a fluorescent microscope. Various concentrations of the selected compounds (10 nM to 100 μM) will be applied and the resulting changes in intracellular Ca^2+ transients will be determined and analyzed.

Structure (SMILES)	IC50 (mutant RyR2 channels)	effect on basal channel activity ([3H]ryanodine binding) (mutant RyR2 channels; cell lysates, 3 nM Ca2+, various concentrations of drugs (FIG. 4C))	effect on channel activity of RyR2 (mutant RyR2 channels; summary statement)	fold by which β-adrenergic IC50 is lower than concentration required to inhibit RyR2-mediated SOICR (β-adrenergic receptors)	effect on Ca2+ dependence of [3H]ryanodine binding / sensitivity of RyR2 to Ca2+ activation (RyR2 channel)	effect on SOICR (RyR2-R4496C mutant; HEK293 RyR2-R4496C, 0.5 mM [Ca2+]o, 10 μM)	concentration that abolishes SOICR (RyR2-R4496C mutant; HEK293 cells expressing RyR2 mutants, elevated extracellular Ca2+, preliminary results)	effect on SOICR (RyR2-N4104K mutant; HEK293 RyR2-N4104K, 2 mM [Ca2+]o, various concentrations)	concentration at which SOICR is suppressed (RyR2-N4104K mutant; HEK293 cells (FIG. 5))
COc1ccccc1OCCNCC(O)COc1cccc2[nH]c3ccccc3c12 (stereo not drawn) [Carvedilol]	~30 µM	inhibited basal channel activity	selectively inhibits the channel activity of RyR2	~1,000 fold	no significant effect	inhibited SOICR	~10 µM	–	–
COc1cc(Cl)c(Cl)cc1OCCNCC(O)COc1cccc2[nH]c3ccccc3c12 (stereo not drawn) [Compound 1b]	–	–	–	–	–	–	–	abolish SOICR	~30 µM
